Measured values taken from paper PMC4667193 (Scientific Reports, 2015).

Sequences of proteins named here, by UniProt entry; tags and fusion partners are left off. A change or cut given only in a name is not applied to a line headed by its entry.
UniProt P08911, whole entry: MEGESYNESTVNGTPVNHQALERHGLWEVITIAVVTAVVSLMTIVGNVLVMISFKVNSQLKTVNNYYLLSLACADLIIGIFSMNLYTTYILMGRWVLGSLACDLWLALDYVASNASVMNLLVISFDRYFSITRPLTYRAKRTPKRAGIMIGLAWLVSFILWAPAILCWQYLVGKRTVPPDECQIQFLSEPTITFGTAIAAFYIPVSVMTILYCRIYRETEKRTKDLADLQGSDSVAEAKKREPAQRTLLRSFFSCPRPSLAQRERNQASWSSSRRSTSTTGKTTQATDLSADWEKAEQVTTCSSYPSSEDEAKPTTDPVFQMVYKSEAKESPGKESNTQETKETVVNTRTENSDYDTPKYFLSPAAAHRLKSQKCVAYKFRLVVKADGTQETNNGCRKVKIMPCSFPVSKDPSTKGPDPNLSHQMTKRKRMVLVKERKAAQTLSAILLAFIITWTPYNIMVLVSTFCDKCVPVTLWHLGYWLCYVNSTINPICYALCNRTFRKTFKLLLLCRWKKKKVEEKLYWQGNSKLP
UniProt P08485, whole entry: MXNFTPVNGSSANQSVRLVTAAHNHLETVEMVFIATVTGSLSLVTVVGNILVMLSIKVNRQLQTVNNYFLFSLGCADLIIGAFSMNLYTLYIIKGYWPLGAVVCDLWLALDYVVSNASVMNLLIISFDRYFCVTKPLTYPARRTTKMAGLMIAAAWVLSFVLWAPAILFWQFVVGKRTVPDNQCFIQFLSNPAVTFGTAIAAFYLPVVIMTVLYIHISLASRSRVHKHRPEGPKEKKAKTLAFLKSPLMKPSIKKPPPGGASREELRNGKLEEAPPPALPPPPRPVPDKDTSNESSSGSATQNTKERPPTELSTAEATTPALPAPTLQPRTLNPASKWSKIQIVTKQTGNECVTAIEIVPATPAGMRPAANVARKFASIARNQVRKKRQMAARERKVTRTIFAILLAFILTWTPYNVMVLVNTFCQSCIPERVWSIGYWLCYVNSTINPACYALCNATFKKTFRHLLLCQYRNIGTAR
UniProt P10980, whole entry: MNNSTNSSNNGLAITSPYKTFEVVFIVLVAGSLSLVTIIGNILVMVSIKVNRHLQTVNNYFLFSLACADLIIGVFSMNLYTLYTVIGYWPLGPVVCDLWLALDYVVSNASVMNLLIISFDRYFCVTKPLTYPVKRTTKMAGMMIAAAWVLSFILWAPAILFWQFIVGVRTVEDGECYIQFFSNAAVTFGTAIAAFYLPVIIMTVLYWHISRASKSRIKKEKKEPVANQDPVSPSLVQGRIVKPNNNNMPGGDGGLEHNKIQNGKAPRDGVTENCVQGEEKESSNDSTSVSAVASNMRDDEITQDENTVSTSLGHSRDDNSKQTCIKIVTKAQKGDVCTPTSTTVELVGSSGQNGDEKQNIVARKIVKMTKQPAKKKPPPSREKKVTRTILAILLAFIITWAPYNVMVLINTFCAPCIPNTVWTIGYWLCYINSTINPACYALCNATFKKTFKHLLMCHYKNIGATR
UniProt P08483, whole entry: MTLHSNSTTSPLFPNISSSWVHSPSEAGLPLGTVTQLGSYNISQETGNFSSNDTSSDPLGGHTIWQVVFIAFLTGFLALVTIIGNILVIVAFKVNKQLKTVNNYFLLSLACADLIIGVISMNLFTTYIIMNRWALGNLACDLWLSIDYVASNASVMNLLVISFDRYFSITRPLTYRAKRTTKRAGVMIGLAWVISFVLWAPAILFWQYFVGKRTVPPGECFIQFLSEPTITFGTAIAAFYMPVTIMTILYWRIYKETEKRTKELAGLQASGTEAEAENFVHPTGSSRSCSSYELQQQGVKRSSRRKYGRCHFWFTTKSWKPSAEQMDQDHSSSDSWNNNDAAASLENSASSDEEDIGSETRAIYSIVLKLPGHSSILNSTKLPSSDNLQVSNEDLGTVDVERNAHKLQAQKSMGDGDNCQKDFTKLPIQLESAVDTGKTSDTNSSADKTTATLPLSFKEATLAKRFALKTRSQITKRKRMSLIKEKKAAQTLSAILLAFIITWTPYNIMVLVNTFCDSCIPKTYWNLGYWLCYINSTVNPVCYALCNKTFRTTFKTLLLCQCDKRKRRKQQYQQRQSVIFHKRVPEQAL
UniProt P08482: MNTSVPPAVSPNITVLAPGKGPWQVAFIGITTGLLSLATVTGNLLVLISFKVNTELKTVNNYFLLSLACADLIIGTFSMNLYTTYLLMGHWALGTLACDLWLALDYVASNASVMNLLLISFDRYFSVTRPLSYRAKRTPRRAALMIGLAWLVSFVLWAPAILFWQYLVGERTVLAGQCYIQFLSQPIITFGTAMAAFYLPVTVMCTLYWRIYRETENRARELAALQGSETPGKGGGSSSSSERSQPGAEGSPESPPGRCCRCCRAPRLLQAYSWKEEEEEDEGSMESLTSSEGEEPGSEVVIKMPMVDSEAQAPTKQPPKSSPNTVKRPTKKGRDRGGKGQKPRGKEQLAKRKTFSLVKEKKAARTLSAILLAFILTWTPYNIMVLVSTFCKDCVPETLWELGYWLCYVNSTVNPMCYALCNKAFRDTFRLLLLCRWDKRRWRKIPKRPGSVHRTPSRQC

Tests used:
Assay in all cases: [^3H]NMS saturation binding, CHO cell membranes
Rat M5 mAChR = molecular target: T1, Rat M5 mAChR (Rattus norvegicus, UniProt P08911); settings: for Bmax: CHO cells expressing rat M5
T1 construct: host or cells: CHO (CHO-K1) cells
Experimental: (§1) Membranes were prepared from CHO cells stably expressing individual rat mAChRs (rM1 to rM5). Briefly, media was removed, cells were washed with PBS and harvested with PBS into a centrifuge bottle. Cells were spun at 2,000 g for 5 minutes at 4 °C. After harvesting, the supernatant was gently discarded and cold membrane preparation buffer [Hanks’ balanced salt solution (HBSS; Invitrogen), 4.17 mM sodium bicarbonate, 20 mM HEPES and 0.5 mM EDTA] was added (10 mL/dish). Cells were then homogenized for 5–10 seconds with a rotary homogenizer (Polytron®) and centrifuged at 20,000g for 20 minutes at 4 °C. The homogenization/centrifugation cycle was repeated twice. After the last centrifugation, the supernatant was gently discarded and the pellet was resuspended in cold membrane preparation buffer (up to 2 mL). All binding reactions were performed in a total volume of 1 mL containing 25 μg of membrane protein. […] The equilibrium binding was terminated by rapid filtration using a 96-well harvester (Brandel®). Filters were washed three times with ice-cold harvesting buffer and were dried overnight. Radioactivity was counted using a TopCount NXT (PerkinElmer®) and counts were normalized to the maximal specific binding in the presence of vehicle. Saturation and competition binding data were analyzed using a weighted nonlinear least-squares interactive curve-fitting program GraphPad Prism (GraphPad Prism Software version 5.0). A mathematical model for one or two binding sites was applied. The equilibrium dissociation constant (KD) and the binding capacity (Bmax) were determined. The inhibition constant (Ki) was determined from competition curves using the Cheng and Prusoff equation[52].

Rat M4 mAChR = molecular target: T2, Rat M4 mAChR (Rattus norvegicus, UniProt P08485)
T2 construct: host or cells: CHO (CHO-K1) cells
Experimental: as §1

Rat M2 mAChR = molecular target: T3, Rat M2 mAChR (Rattus norvegicus, UniProt P10980); settings: for Bmax: CHO cells expressing rat M2
T3 construct: host or cells: CHO (CHO-K1) cells
Experimental: as §1

Rat M3 mAChR = molecular target: T4, Rat M3 mAChR (Rattus norvegicus, UniProt P08483); settings: CHO cells expressing rat M3
T4 construct: host or cells: CHO (CHO-K1) cells

Rat M1 mAChR = molecular target: T5, Rat M1 mAChR (Rattus norvegicus, UniProt P08482); settings: CHO cells expressing rat M1
T5 construct: host or cells: CHO (CHO-K1) cells

CN1[C@@H]2C[C@@H](OC(=O)[C@H](CO)c3ccccc3)C[C@H]1[C@@H]1O[C@@H]12 [[^3H]NMS, l-[N-methyl-^3H]scopolamine]
Kd (Rat M5 mAChR; rat M5): 0.224 ± 0.016 nM
Kd (Rat M4 mAChR; rat M4): 0.038 ± 0.004 nM
Kd (Rat M2 mAChR; rat M2): 0.159 ± 0.022 nM

[3H]CN1[C@@H]2C[C@@H](OC(=O)[C@H](CO)c3ccccc3)C[C@H]1[C@@H]1O[C@@H]12 [[^3H]NMS, l-[N-methyl-^3H]scopolamine]
Bmax (Rat M3 mAChR): 1132 ± 033 fmol/mg of protein
Bmax (Rat M3 mAChR; listed as [3H]NMS): 1132±33 fmol/mg of protein
Bmax (Rat M5 mAChR): 1564 ± 027 fmol/mg of protein
Bmax (Rat M5 mAChR; listed as [3H]NMS): 1564±27 fmol/mg of protein
Bmax (Rat M4 mAChR; CHO cells expressing rat M4): 1835 ± 127 fmol/mg of protein
Bmax (Rat M2 mAChR): 1470 ± 053 fmol/mg of protein
Bmax (Rat M2 mAChR; listed as [3H]NMS): 1470±53 fmol/mg of protein
Bmax (Rat M1 mAChR): 1087 ± 165 fmol/mg of protein
